In PubChem BioAssay AID504652 (National Center for Advancing Translational Sciences (NCATS), 2011) one finds activity change, negative = inhibition data, which are given here for 83 molecules.

Sequences of proteins named here, by UniProt entry; tags and fusion partners are left off.
UniProt P21728, whole entry: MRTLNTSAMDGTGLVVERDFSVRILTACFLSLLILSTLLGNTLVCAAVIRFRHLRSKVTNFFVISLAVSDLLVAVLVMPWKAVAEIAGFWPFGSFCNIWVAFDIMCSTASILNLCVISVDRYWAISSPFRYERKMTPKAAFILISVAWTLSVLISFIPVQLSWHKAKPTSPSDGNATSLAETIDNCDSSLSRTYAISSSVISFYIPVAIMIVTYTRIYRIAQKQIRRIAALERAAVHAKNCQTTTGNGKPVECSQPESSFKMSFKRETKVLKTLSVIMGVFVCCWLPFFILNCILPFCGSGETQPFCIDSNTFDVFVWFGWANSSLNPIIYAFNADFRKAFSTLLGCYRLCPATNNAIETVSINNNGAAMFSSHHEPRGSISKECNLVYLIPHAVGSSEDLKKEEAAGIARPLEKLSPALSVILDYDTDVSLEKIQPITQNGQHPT

Only a part is listed here, and it is no random draw. Some salts and complexes are drawn in separate pieces, as the source files them; their charges need not balance. The source made the active and inactive calls. Rule as the data show it: active = activity change below about -30%; inactive = the rest.
% is scaled to controls: 0 for no effect and ±100 for the full control effect.

The target of this assay is D(1A) dopamine receptor (Homo sapiens) (UniProt P21728). Briefly: Antagonist of Human D 1 Dopamine Receptor: qHTS. The settings on record: HEK293 TREx D1 cells, calcium flux, dopamine EC80; at 10 µM; hits give low values. From the text:
Dopamine receptors (DARs) are involved in the etiology and/or therapy of a number of neuropsychiatric and endocrine disorders. For instance, all receptor-based antiparkinsonian drugs work via stimulating the […] DAR subtype whereas all FDA-approved antipsychotic agents are antagonists of this receptor. […] There are three different types of allosteric modulators that we are seeking, two of which will stimulate or augment receptor signaling, allosteric agonists and potentiators, while the third, allosteric antagonists, will attenuate receptor signaling. The present primary screening assay measures compound antagonism after an EC80 addition of dopamine by tracking calcium flux in a […], inducible Hek293 Trex D1 cell line. NIH Chemical Genomics Center [NCGC] NIH Molecular Libraries Probe Centers Network [MLPCN] MLPCN Grant: NS064831-01 Assay Submitter (PI): David Sibley
Freshly passaged cells are plated in 1536 well black, clear bottom plates at a density of 4000 cells/well in 3 ul of complete media containing 1x tetracycline inducer. After an overnight incubation at 30 C in 5% CO2, cells are loaded with 2 ul of the no wash Calcium Assay Kit (ABD Bioquest) and incubated at room temperature for 30 to 90 minutes. Agonist read: A 10 cycle (1 second/cycle) baseline measurement is taken and then the FDSS online 1536 pintool delivers 23 nl of compound library (as well as dopamine controls) to the plate. The plate is measured for kinetically at 1 cycle/sec for 180 seconds. Following the 180 second read, 1 ul of an EC80 (negative modulation assay) is delivered by an onboard pipette head. Measurements are taken kinetically for an additional 180 seconds.
(In qHTS, concentration-response curves come from the screen itself.)
Consider `O=C(NCC1(N2CCCCC2)CCCCC1)c1cccc(C(F)(F)F)c1`, for which the activity change, negative = inhibition is inactive: 15.8%.
The figure for `CCCOc1cccc(C(=O)NCC2(N3CCOCC3)CCCCC2)c1` is inactive: 1.47%; for `O=[N+]([O-])c1cc([N+](=O)[O-])c(NCC2CCS(=O)(=O)C2)c([N+](=O)[O-])c1` (stereo not drawn) it is inactive: -11.8%.
Under `CC(C)c1ccc(C(=O)NCC2(N3CCOCC3)CCCCC2)cc1` stands inactive: -3.56%; under `COc1ccc(NC2CCN(C(=O)OC(C)(C)C)CC2)cc1`, inactive: -17.8%; under `CN1CCN(CCOC(=O)C(O)(c2ccccc2)c2ccccc2)CC1`, inactive: -5.51%.
Under `O=C(NCC1(N2CCOCC2)CCCCC1)c1cc(=O)[nH]c2ccccc12` stands inactive: 1.17%; under `COc1cc(C(=O)NCC2(N3CCCCC3)CCCCC2)ccc1OC(F)F`, inactive: 8.76%; under `O=C(NCC1(N2CCCCC2)CCCCC1)c1ccc(OC(F)F)cc1`, inactive: -5.46%.
Take `CSc1ccc(C(=O)NCC2(N3CCOCC3)CCCCC2)cc1`: the activity change, negative = inhibition was inactive: -0.663%.
On to `CCOc1ccc(C(=O)NCC2(N3CCOCC3)CCCCC2)cc1`, for which the activity change, negative = inhibition is inactive: 2.79%.
Under `O=C(NCC1(N2CCCCC2)CCCCC1)c1cccc([N+](=O)[O-])c1` stands inactive: -10.1%.
The figure for `CCN1CCC(Nc2ccc(Cl)cc2)CC1` is inactive: -2.93%.
Regarding `N#CC1(Nc2ccccc2)CCN(CCc2ccccc2)CC1`, the activity change, negative = inhibition is inactive: 6.71%.
Under `COc1ccc2c(c1O)-c1c(O)c(OC)cc3c1[C@H](C2)[N+](C)(C)CC3.O=[N+]([O-])c1cc([N+](=O)[O-])c([O-])c([N+](=O)[O-])c1[O-]` stands inactive: -2.65%; under `O=C(NCC1(N2CCCCC2)CCCCC1)c1cncc(Br)c1`, inactive: 6.16%; under `O=C(OC1CN2CCC1CC2)c1ccc([N+](=O)[O-])cc1` (stereo not drawn), inactive: -10.9%.
As to `CCCCOc1ccccc1C(=O)NCC1(N2CCOCC2)CCCCC1`, the activity change, negative = inhibition was inactive: 18.7%.
As for `O=C(NCC1(N2CCOCC2)CCCCC1)c1ccccc1Br`, the activity change, negative = inhibition was inactive: -8.87%.
For `CCCOc1ccc(C(=O)NCC2(N(C)C)CCCCC2)cc1OC`, the activity change, negative = inhibition was inactive: 18.3%.
Under `COc1ccc(CN(CCCl)CCCl)cc1Cl` stands inactive: -5.09%; under `CN(C)c1cccc(C(=O)NCC2(N3CCCCC3)CCCCC2)c1`, inactive: -4.38%.
On to `O=[N+]([O-])c1cc([N+](=O)[O-])c(OC2CCCCC2O)c([N+](=O)[O-])c1` (stereo not drawn), for which the activity change, negative = inhibition was inactive: -18.3%.
Under `CC(C)c1ccc(NC2CCN(C(=O)OC(C)(C)C)CC2)cc1` stands inactive: 1.32%.
Under `COc1cc(OC)c(C(=O)NCC2(N(C)C)CCCCC2)cc1OC` stands inactive: 1.2%; under `O=C(NCC1(N2CCOCC2)CCCCC1)c1cc2ccccc2o1`, inactive: 11%.
On to `O=C(NCC1(N2CCCCC2)CCCCC1)c1ccc(Cl)nc1`, for which the activity change, negative = inhibition is inactive: -17.9%.
Under `Cc1cc(C)cc(N(C(=O)c2ccccc2)C2CCN(C(=O)OC(C)(C)C)CC2)c1` stands inactive: 8.94%.
In the case of `CCOC(=O)N1CCC(Nc2ccc(OC)cc2)CC1`, the activity change, negative = inhibition is inactive: 28.5%.
Under `N#CC1(Nc2ccccc2)CCN(Cc2ccccc2)CC1` stands inactive: 6.02%.
Under `O=C(NCC1(N2CCCCC2)CCCCC1)c1ccc(Cl)s1` stands inactive: 48.8%.
For `O=C(OC1CN2CCC1CC2)C1c2ccccc2Oc2ccccc21` (stereo not drawn), the activity change, negative = inhibition is inactive: 4.53%.
The figure for `COc1ccc(Cl)cc1C(=O)NCC1(N2CCOCC2)CCCCC1` is inactive: 12.7%.
Under `O=C(NCC1(N2CCCCC2)CCCCC1)c1ccc(=O)[nH]c1` stands inactive: 11.7%; under `O=C(NCC1(N2CCCCC2)CCCCC1)c1cccs1`, inactive: -1.62%.
As for `COc1ccc(C(=O)NCC2(N3CCCCC3)CCCCC2)cc1`, the activity change, negative = inhibition was inactive: -0.571%.
Under `CC(C)(C)OC(=O)N1CCC(N(C(=O)c2ccccc2)c2ccc(F)cc2)CC1` stands inactive: -17.5%.
Under `CSc1ccccc1C(=O)NCC1(N2CCCCC2)CCCCC1` stands inactive: 18.8%; under `CCOC(=O)N1CCC(Nc2cccc(C)c2)CC1`, inactive: -12.7%; under `COc1cc(C(=O)NCC2(N(C)C)CCCCC2)ccc1OC(F)F`, inactive: -3.98%.
Under `Cc1ccc(OCC(C)C)c(CN(CCCl)CCCl)c1` stands inactive: 2.28%.
Turning to `CCOc1ccc(C)cc1CN(CCCl)CCCl`, the activity change, negative = inhibition was inactive: 0.285%.
Under `O=C(NCC1(N2CCOCC2)CCCCC1)c1ccc(Cl)cc1` stands inactive: -25.2%.
On to `CCCCOc1ccc(C(=O)NCC2(N3CCOCC3)CCCCC2)cc1`, for which the activity change, negative = inhibition is inactive: 8.34%.
The figure for `O=C(NCC1(N2CCCCC2)CCCCC1)c1ccc(F)cc1` is inactive: 7.84%; for `CCOC(=O)N1CCC(Nc2ccc(F)cc2)CC1` it is inactive: -2.92%; for `COc1ccc(NC2CCN(CCc3ccccc3)CC2)c(OC)c1` it is inactive: -7.25%.
`COc1ccccc1C(=O)NCC1(N2CCOCC2)CCCCC1`: the activity change, negative = inhibition is inactive: 5.8%.
Take `CCN1CCC(Nc2cccc(F)c2)CC1`: the activity change, negative = inhibition was inactive: 6%.
On to `O=C(NCC1(N2CCCCC2)CCCCC1)c1ccco1`, for which the activity change, negative = inhibition was inactive: 29.2%.
As to `CC(C)(C)c1ccc(C(=O)NCC2(N3CCOCC3)CCCCC2)cc1`, the activity change, negative = inhibition is inactive: 3.56%.
Under `CN(C)c1ccc(C(=O)NCC2(N3CCCCC3)CCCCC2)cc1` stands inactive: 0.341%.
Under `Cc1ccccc1C(=O)NCC1(N(C)C)CCCCC1` stands inactive: 8%; under `COc1cc(OC)cc(C(=O)NCC2(N3CCCCC3)CCCCC2)c1`, inactive: 3.04%; under `CN(C)C1(CNC(=O)c2ccc(C(C)(C)C)cc2)CCCCC1`, inactive: 15.1%.
As to `Cc1ccc(C(=O)NCC2(N3CCCCC3)CCCCC2)o1`, the activity change, negative = inhibition is inactive: 9.99%.
Take `CCC(CO)(C(=O)OC1CN2CCC1CC2)c1ccccc1` (stereo not drawn): the activity change, negative = inhibition was inactive: 12.7%.
The figure for `COc1cccc(C(=O)N(c2cc(C)cc(C)c2)C2CCN(C(=O)OC(C)(C)C)CC2)c1` is inactive: -1.18%; for `COc1cc(OC)cc(C(=O)NCC2(N3CCOCC3)CCCCC2)c1` it is inactive: 0.409%.
Under `COc1cc(C(=O)NCC2(N3CCOCC3)CCCCC2)cc(OC)c1OC` stands inactive: 0.865%; under `CCCOc1ccc(C)cc1CN(CCCl)CCCl`, inactive: -7.56%.
For the molecule `CN1CCC(Nc2ccc(Cl)cc2)CC1`, the activity change, negative = inhibition was inactive: 7.69%.
For the molecule `CCOc1ncccc1C(=O)NCC1(N2CCOCC2)CCCCC1`, the activity change, negative = inhibition is inactive: 4.5%.
With `CN1CCC(Nc2ccc(F)c(Cl)c2)CC1`, the activity change, negative = inhibition was inactive: 5.99%.
The figure for `CCCOc1ccc(C(=O)NCC2(N(C)C)CCCCC2)cc1` is inactive: 13.1%; for `CC(C)(C)OC(=O)N1CCC(Nc2ccccc2)CC1` it is inactive: -13.3%; for `O=C(O)C1(Nc2ccccc2)CCN(Cc2ccccc2)CC1` it is inactive: 8.29%.
The figure for `N/C(=N\O)c1c(N)no[n+]1[O-]` is inactive: 1.75%; for `CCOC(=O)N1CCC(Nc2ccc(C)cc2)CC1` it is inactive: -3.53%; for `CCc1cc(C(=O)NCC2(N3CCCCC3)CCCCC2)sc1C` it is inactive: -5.62%.
Regarding `O=C(OC1CN2CCC1CC2)C1c2ccccc2C=Cc2ccccc21` (stereo not drawn), the activity change, negative = inhibition was inactive: -8.55%.
Consider `O=C(O)c1cccc(Nc2c([N+](=O)[O-])cc([N+](=O)[O-])cc2[N+](=O)[O-])c1`, for which the activity change, negative = inhibition was inactive: 14.9%.
Under `O=C(NCC1(N2CCOCC2)CCCCC1)c1cc(Br)ccc1Cl` stands inactive: 10.4%; under `COc1ccc(C(=O)NCC2(N3CCOCC3)CCCCC2)cc1OC`, inactive: -5.55%; under `c1ccc(CN2CCC(Nc3ccccc3)CC2)cc1`, inactive: -3.59%.
The figure for `O=C(NCC1(N2CCOCC2)CCCCC1)c1ccccc1` is inactive: 4.22%; for `CCCN1CCC(Nc2cc(OC)cc(OC)c2)CC1` it is inactive: -0.601%.
The figure for `CN(C)C1(CNC(=O)c2cccc(C#N)c2)CCCCC1` is inactive: -3.43%.
With `O=C(NCC1(N2CCOCC2)CCCCC1)c1ccc([N+](=O)[O-])cc1`, the activity change, negative = inhibition was inactive: 7.88%.
The figure for `CC(C)(C)OC(=O)N1CCC(N(C(=O)c2ccccc2)c2ccc(Cl)cc2)CC1` is inactive: -10.1%; for `O=C(NCC1(N2CCOCC2)CCCCC1)c1ccccc1[N+](=O)[O-]` it is inactive: -10.5%.
Under `N#Cc1ccc(C(=O)NCC2(N3CCCCC3)CCCCC2)cc1` stands inactive: -25.3%.
Regarding `CCOC(=O)C(CC)C1=NC(C)(C)Cc2ccccc21.O=[N+]([O-])c1cc([N+](=O)[O-])c(O)c([N+](=O)[O-])c1` (stereo not drawn), the activity change, negative = inhibition was inactive: 2.45%.
